As a reminder, the IC50 is the point on the concentration scale where inhibition reaches its midpoint. A low value points to greater potency in that assay.

This is an account of results in ChEMBL document CHEMBL1126554, “Synthesis of novel modified dipeptide inhibitors of human collagenase: beta-mercapto carboxylic acid derivatives” (J Med Chem, 1993).

The first test deals with T1, Interstitial collagenase (Homo sapiens, UniProt P03956).
T1 sequence (P03956 whole entry): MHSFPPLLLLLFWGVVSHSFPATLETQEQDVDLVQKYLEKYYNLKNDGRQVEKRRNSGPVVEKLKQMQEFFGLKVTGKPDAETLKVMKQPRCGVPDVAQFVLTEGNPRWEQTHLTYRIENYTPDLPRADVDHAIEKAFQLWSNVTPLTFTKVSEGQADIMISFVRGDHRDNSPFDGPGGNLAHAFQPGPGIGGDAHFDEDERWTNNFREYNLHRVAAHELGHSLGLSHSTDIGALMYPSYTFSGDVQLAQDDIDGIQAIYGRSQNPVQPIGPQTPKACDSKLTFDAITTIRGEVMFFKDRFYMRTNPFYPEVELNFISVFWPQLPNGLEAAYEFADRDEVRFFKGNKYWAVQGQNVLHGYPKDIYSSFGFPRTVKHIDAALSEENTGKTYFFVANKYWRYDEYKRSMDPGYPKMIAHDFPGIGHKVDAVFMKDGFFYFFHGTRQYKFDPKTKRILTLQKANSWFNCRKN
As to the kind of experiment: Inhibition of rat skin type I collagen degradation by purified human lung fibroblast collagenase without beta-mercaptoethanol. The essentials: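 β-Mercaptoethanol omitted. Enzyme was trypsin-activated, semipurified collagenase from WI-38 fibroblast culture supernatants. Compounds sonicated into MeOH, serially diluted. Collagen 3H- or 14C-acetylated, 100 μg/tube, added to tubes cooled to 4 °C. Incubated 37 °C for 1000 min, centrifuged 12 000 rpm for 15 min at 4 °C. Soluble supernatant peptides counted by liquid scintillation.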
Compound `CNC(=O)[C@H](Cc1ccc(OC)cc1)NC(=O)[C@H](CC(C)C)[C@@H](S)CC(=O)OCc1ccccc1` had an IC50 of 68 nM.

The target of the next test is T1, Interstitial collagenase. As to the kind of experiment: Inhibition of radiolabeled rat skin type I collagen degradation by purified human lung fibroblast collagenase. The method, boiled down:
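Trypsin-activated, semipurified enzyme from WI-38 lung fibroblast culture supernatants. 3H- or 14C-acetylated collagen (100 μg/tube) added at 4 °C, then 37 °C for 1000 min. Spun 12 000 rpm, 15 min, 4 °C. Supernatant peptides counted by scintillation. Enzyme set for 70% degradation.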
Regarding `CNC(=O)[C@H](Cc1ccc(OC)cc1)NC(=O)[C@H](CC(C)C)[C@@H](S)CC(=O)OCc1ccccc1`, half-maximal inhibition (IC50) required 1.8 nM.

In the case of `CNC(=O)[C@H](Cc1ccc(OC)cc1)NC(=O)[C@H](CC(C)C)[C@@H](S)CC(=O)OC`, the IC50 came to 3.1 nM. Take `CNC(=O)[C@H](Cc1ccc(OC)cc1)NC(=O)C(CC(C)C)C(S)CC(=O)OCc1ccccc1` (stereo in doubt; 44b): the IC50 was determined as 4500 nM. Still for that read-out and setting: under `CNC(=O)[C@H](Cc1ccc(OC)cc1)NC(=O)[C@@H](CC(C)C)[C@H](S)CC(=O)OCc1ccccc1` stands 34 nM; under `CNC(=O)[C@H](Cc1ccc(OC)cc1)NC(=O)C(CC(C)C)C(S)CC(=O)OCc1ccccc1` (stereo in doubt; 44c), 980 nM.
